Laboratory results reported in article PMC3222833.

How the values were obtained:
[1] = substrate: CCCCCCCC(NC(=O)[C@H](CC(=O)O)NC(C)=O)C(=O)O; test: Saturation kinetics of substrate hydrolysis by mutated GCPII; type: biochemical, human; conditions: other: K699S mutant; 37.0 °C
[2] = substrate: CSCC[C@H](NC(=O)[C@H](CC(=O)O)NC(C)=O)C(=O)O; test: as above; type: biochemical, human; conditions: other: K699S mutant; 37.0 °C

B1: rhGCPII(K699S) mutant (Homo sapiens; K699S) (protein)
chain: KSSNEATNITPKHNMKAFLDELKAENIKKFLYNFTQIPHLAGTEQNFQLAKQIQSQWKEFGLDSVELAHYDVLLSYPNKTHPNYISIINEDGNEIFNTSLFEPPPPGYENVSDIVPPFSAFSPQGMPEGDLVYVNYARTEDFFKLERDMKINCSGKIVIARYGKVFRGNKVKNAQLAGAKGVILYSDPADYFAPGVKSYPDGWNLPGGGVQRGNILNLNGAGDPLTPGYPANEYAYRRGIAEAVGLPSIPVHPIGYYDAQKLLEKMGGSAPPDSSWRGSLKVPYNVGPGFTGNFSTQKVKMHIHSTNEVTRIYNVIGTLRGAVEPDRYVILGGHRDSWVFGGIDPQSGAAVVHEIVRSFGTLKKEGWRPRRTILFASWDAEEFGLLGSTEWAEENSRLLQERGVAYINADSSIEGNYTLRVDCTPLMYSLVHNLTKELKSPDEGFEGKSLYESWTKKSPSPEFSGMPRISKLGSGNDFEVFFQRLGIASGRARYTKNWETNKFSGYPLYHSVYETYELVEKFYDPMFKYHLTVAQVRGGMVFELANSIVLPFDCRDYAVVLRKYADKIYSISMKHPQEMKTYSVSFDSLFSAVKNFTEIASKFSERLQDFDKSNPIVLRMMNDQLMFLERAFIDPLGLPDRPFYRHVIYAPSSHNSYAGESFPGIYDALFDIESKVDPSKAWGEVKRQIYVAAFTVQAAAETLSEVA
Km [1]: 2.9 ± 0.7 µM
kcat [1]: 0.37 ± 0.05 s⁻¹
kcat/Km [1]: 128000 M⁻¹ s⁻¹
Km [2]: 2.6 ± 1.1 µM
kcat [2]: 0.25 ± 0.04 s⁻¹
kcat/Km [2]: 96200 M⁻¹ s⁻¹
